IC50 data for one compound are collected here from US8937193B2, “Apogossypolone derivatives as anticancer agents” (Sanford-Burnham Medical Research Institute, priority 2009, dated 2015).

Sequences of proteins named here, by UniProt entry; tags and fusion partners are left off. A change or cut given only in a name is not applied to a line headed by its entry.
UniProt Q16548: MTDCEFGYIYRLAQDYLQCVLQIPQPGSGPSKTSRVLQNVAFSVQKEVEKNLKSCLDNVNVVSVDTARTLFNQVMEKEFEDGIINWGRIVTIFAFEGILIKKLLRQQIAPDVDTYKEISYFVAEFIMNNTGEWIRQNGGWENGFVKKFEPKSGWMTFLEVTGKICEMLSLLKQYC

A word on the IC50: it is the point on the concentration scale where inhibition reaches its midpoint.

The assay addresses Bfl-1 (Homo sapiens (Human), UniProt Q16548). In words: Fluorescence polarization competitive binding assay (FPA), Bfl-1. Conditions: displacement of BH3 peptide.

`CC1=C(C2=C(C)C(=O)c3c(cc(O)c(O)c3CCc3ccc(C)cc3)C2=O)C(=O)c2cc(O)c(O)c(CCc3ccc(C)cc3)c2C1=O` [Compound 6f, 6,6′,7,7′-tetrahydroxy-3,3′-dimethyl-5,5′-bis(4-methylphenethyl)-2,2′-binaphthyl-1,1′,4,4′-tetraone] had a concentration for half-maximal inhibition (IC50) of 14 µM.
